Results as given in patent EP0478545B1, “1,2,4-BENZOTRIAZINE OXIDES AS RADIOSENSITIZERS AND SELECTIVE CYTOTOXIC AGENTS” (SRI INTERNATIONAL, priority 1989, dated 1991).

Tested on: HA-1 cells
Experiment: Hypoxic versus aerobic cytotoxicity from survival curves of cells in suspension culture
Conditions: compared to 3-amino-1,2,4-benzotriazine 1,4-dioxide (22)

Row | Structure (SMILES) | cytotoxicity against hypoxic HA-1 tumor cells in vitro
1 | CCN(CC)CCCNc1n[n+]([O-])c2ccccc2[n+]1[O-] [Compound 18a, 3-(3-N,N-diethylaminopropylamino)-1,2,4 benzotriazine 1,4-dioxide] | significantly enhanced cytotoxicity
2 | CCN(CC)CCNc1n[n+]([O-])c2cc([N+](=O)[O-])ccc2[n+]1[O-] [Compound 21, 7-nitro-3-(2-N,N-diethylaminoethylamino)-1,2,4-benzotriazine 1,4-dioxide hydrochloride] | significantly enhanced cytotoxicity

Counter-ions that a name gives are not always drawn.
